Source: patent US5256533A, “As a probe of serotonin uptake harmaline” (Board of Regents, The University of Texas System, priority 1990, dated 1993)

Tests used:
[1] = molecular target: [^3 H]GABA binding sites of brain tissue; assay: Inhibition of [3H]GABA binding by brain homogenates; details: concentration causing 50% inhibition of isotope binding
Protocol: (§1) TABLE 1 illustrates the general inhibitory effects of beta carbolines on neurotransmitter binding by brain tissue. Samples of brain tissue rich in the respective neurotransmitter binding sites were obtained, homogenized, washed and incubated with a series of beta carboline concentrations. After subsequent additions of tritiated neurotransmitters, the extent of beta carboline inhibition of labeled neurotransmitter binding was measured. As shown, a variety of beta carbolines were effective antagonists of several neurotransmitters. IC50 values indicate concentrations of the indicated beta carboline which causes a 50% inhibition of the respective neurotransmitter isotope binding with brain homogenates. […] These beta carbolines may be used as vital stains for the respective neurotransmitter systems, accumulating in living tissue.

[2] = molecular target: [^3 h]Noradrenaline binding sites of brain tissue; assay: Inhibition of [3H]noradrenaline binding by brain homogenates; details: concentration causing 50% inhibition of isotope binding
Protocol: as §1

[3] = molecular target: [^3 H]Choline binding sites of brain tissue; assay: Inhibition of [3H]choline binding by brain homogenates; details: concentration causing 50% inhibition of isotope binding
Protocol: as §1

[4] = test system: ^3 H-serotonin uptake by retina; assay: Inhibition of 3H-serotonin uptake in retina (FIG. 5); format: cell-based

| SMILES | pIC50 [1] | pIC50 [2] | pIC50 [3] | Inhibition of ^3 H-serotonin uptake by retina [4] |
| --- | --- | --- | --- | --- |
| Cc1nccc2c1[nH]c1ccccc12 [1-methyl-beta-carboline] | 3.77 | 4.36 | 4.07 | – |
| CN(C)CCC=C1c2ccccc2CCc2ccccc21 [amitryptaline] | – | – | – | antagonized |
| CN(C)CCCN1c2ccccc2CCc2ccc(Cl)cc21 [chlormipramine] | – | – | – | antagonized |

pIC50: −log10 of the molar value.
